According to ChEMBL document CHEMBL5576157, “"Seasoning" antimalarial drugs' action: chloroquine bile salts as novel triple-stage antiplasmodial hits” (RSC Med Chem, 2024):
Calls of active or inactive are those of the source. The calls are words filed in the database; no cut-off is given here.

The compounds below were run on Plasmodium berghei (assay: Antimalarial activity against Plasmodium berghei sporozoites expressing firefly luciferase infected in human Huh-7 cells assessed reduction in parasite growth at 10 uM preincubated for 1 hr followed by infection and measured after 48 hrs by luminescence analysis). Settings: time 49.0 hrs.
Format: functional, organism-based
In short: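 Huh-7 hepatoma cells were grown in RPMI with 10% FCS, non-essential amino acids, glutamine, penicillin/streptomycin and 10 mM HEPES pH 7, at 37 °C and 5% CO2. Cells were seeded at 1.2×10⁴/well the day before. Compound medium was added ~1 h before infection with firefly luciferase P. berghei sporozoites freshly dissected from mosquito salivary glands, then spun at 1700 g for 5 min. Parasite load was read at 48 h by lysate luminescence after luciferin addition.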
With CCN(CC)CCCC(C)Nc1ccnc2cc(Cl)ccc12.C[C@H](CCC(=O)O)[C@H]1CC[C@H]2[C@@H]3[C@H](O)C[C@@H]4C[C@H](O)CC[C@]4(C)[C@H]3C[C@H](O)[C@]12C the Activity was “Active”.
For CCN(CC)CCCC(C)Nc1ccnc2cc(Cl)ccc12.C[C@H](CCC(=O)NCC(=O)O)[C@H]1CC[C@H]2[C@@H]3[C@H](O)C[C@@H]4C[C@H](O)CC[C@]4(C)[C@H]3C[C@H](O)[C@]12C, the Activity was “Active”.
For COc1cc(NC(C)CCCN)c2ncccc2c1.C[C@H](CCC(=O)O)[C@H]1CC[C@H]2[C@@H]3[C@H](O)C[C@@H]4C[C@H](O)CC[C@]4(C)[C@H]3C[C@H](O)[C@]12C, the Activity was “Active”.
For COc1cc(NC(C)CCCN)c2ncccc2c1.C[C@H](CCC(=O)NCC(=O)O)[C@H]1CC[C@H]2[C@@H]3[C@H](O)C[C@@H]4C[C@H](O)CC[C@]4(C)[C@H]3C[C@H](O)[C@]12C, the Activity was “Active”.
With CCN(CC)CCCC(C)Nc1ccnc2cc(Cl)ccc12.C[C@H](CCC(=O)O)[C@H]1CC[C@H]2[C@@H]3[C@H](O)C[C@@H]4C[C@H](O)CC[C@]4(C)[C@H]3CC[C@]12C the Activity was “Active”.
With COc1cc(NC(C)CCCN)c2ncccc2c1.C[C@H](CCC(=O)O)[C@H]1CC[C@H]2[C@@H]3CC[C@@H]4C[C@H](O)CC[C@]4(C)[C@H]3C[C@H](O)[C@]12C the Activity was “Active”.
In the case of CCN(CC)CCCC(C)Nc1ccnc2cc(Cl)ccc12.C[C@H](CCC(=O)O)[C@H]1CC[C@H]2[C@@H]3CC[C@@H]4C[C@H](O)CC[C@]4(C)[C@H]3C[C@H](O)[C@]12C, the Activity is reported as “Active”.
COc1cc(NC(C)CCCN)c2ncccc2c1.C[C@H](CCC(=O)O)[C@H]1CC[C@H]2[C@@H]3[C@H](O)C[C@@H]4C[C@H](O)CC[C@]4(C)[C@H]3CC[C@]12C was tested, and the Activity was “Active”.

The compounds below were run on Plasmodium falciparum (assay: Antimalarial activity against blood stage chloroquine-sensitive Plasmodium falciparum 3D7 expressing GFP infected in erythrocytes assessed as inhibition of parasite growth at 10 uM incubated for 72 hrs by flow cytometry analysis relative to control). Settings: Erythrocyte.
Format: functional
In short: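 Unsynchronized P. falciparum 3D7-GFP culture (0,6% hematocrit, 0,5% parasitaemia) was exposed to 10 µM compound for 72 h at 37 °C and 5% CO2. Growth was read by flow cytometry of GFP (Fl-1, 488 nm excitation), counting 20,000–40,000 erythrocytes per well.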
C[C@H](CCC(=O)NCC(=O)O)[C@H]1CC[C@H]2[C@@H]3[C@H](O)C[C@@H]4C[C@H](O)CC[C@]4(C)[C@H]3C[C@H](O)[C@]12C was tested, and the inhibition was “inactive”.
With C[C@H](CCC(=O)O)[C@H]1CC[C@H]2[C@@H]3CC[C@@H]4C[C@H](O)CC[C@]4(C)[C@H]3C[C@H](O)[C@]12C the inhibition was “inactive”.
In the case of C[C@H](CCC(=O)O)[C@H]1CC[C@H]2[C@@H]3CC[C@@H]4C[C@H](O)CC[C@]4(C)[C@H]3CC[C@]12C, the inhibition is reported as “inactive”.
In the case of C[C@H](CCC(=O)O)[C@H]1CC[C@H]2[C@@H]3[C@H](O)C[C@@H]4C[C@H](O)CC[C@]4(C)[C@H]3C[C@H](O)[C@]12C, the inhibition is reported as “inactive”.
